Results on two molecules are retold here after PMC5808195 (Frontiers in Pharmacology, 2018).

The chains behind the UniProt entries cited, without tags or fusion partners.
UniProt P31390, whole entry: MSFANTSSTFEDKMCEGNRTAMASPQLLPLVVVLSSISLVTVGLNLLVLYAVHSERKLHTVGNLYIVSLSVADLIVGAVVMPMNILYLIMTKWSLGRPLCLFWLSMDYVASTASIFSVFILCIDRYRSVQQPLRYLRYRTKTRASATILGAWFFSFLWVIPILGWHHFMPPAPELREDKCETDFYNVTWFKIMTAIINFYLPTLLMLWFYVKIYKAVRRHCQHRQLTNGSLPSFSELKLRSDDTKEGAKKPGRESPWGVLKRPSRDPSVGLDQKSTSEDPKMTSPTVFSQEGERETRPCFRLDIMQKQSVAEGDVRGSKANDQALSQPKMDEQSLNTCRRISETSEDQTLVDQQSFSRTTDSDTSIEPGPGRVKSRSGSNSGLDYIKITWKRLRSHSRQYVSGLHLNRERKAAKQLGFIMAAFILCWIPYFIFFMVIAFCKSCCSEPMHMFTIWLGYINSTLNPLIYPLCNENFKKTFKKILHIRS

Where a name gives a salt, the structure may show the parent alone.

The Kd is the concentration at which binding is half-saturated. The term Ki denotes a measure of affinity in units of concentration, obtained from inhibition or displacement. Read a low Ki as higher affinity.

For assay [1], the target named is T1, rat cerebral neuronal membranes (histamine H1 binding sites) (Rattus norvegicus, UniProt P31390).
The target of assay [2] is T1, rat cerebral neuronal membranes (histamine H1 binding sites). Nature of the assay: Competitive displacement of [^3H]pyrilamine binding, rat cerebral neuronal membranes. Set-up: native receptors contained in rat cerebral neuronal membranes; from tissue; host or cells: cerebral tissue of male Wistar rats, membrane fraction (40,000 x g pellet).
A further assay deals with D107A-HRH1. The following applies: ref Ohta et al., 1994; Wieland et al., 1999; Bruysters et al., 2004; cited from earlier work.

[^3H]pyrilamine: the “maximum number of binding sites (Bmax)” value in assay [1] (mean ± SEM) turned out to be 0.151 ± 0.0128 pmol/mg protein. Also, the equilibrium dissociation constant (Kd) in assay [1] (read-out: dissociation constant (Kd), mean ± SEM, n = 3) was 9.76 ± 2.04 nM.

With `COc1ccc(CN(CCN(C)C)c2ccccn2)cc1` [Pyrilamine, pyrilamine maleate], the inhibition constant Ki in assay [2] came out at 5.89 ± 1.88 nM. Further, the “displacement of specific [^3H]pyrilamine binding (in words)” value in assay [2] (rat cerebral neuronal membranes, 20 nM [^3H]pyrilamine) was “concentration-dependent inhibition”. Further, in the assay on D107A-HRH1, the “affinity of mutant receptor D107A-HRH1” value was “low affinity”.
